Laboratory results: paper PMC6704710, “Preclinical evaluation of 3D185, a novel potent inhibitor of FGFR1/2/3 and CSF-1R, in FGFR-dependent and macrophage-dominant cancer models” (Journal of Experimental & Clinical Cancer Research : CR, 2019)

The chains behind the UniProt entries cited, without tags or fusion partners. Residues count along the entry.
UniProt P07333, 20-972: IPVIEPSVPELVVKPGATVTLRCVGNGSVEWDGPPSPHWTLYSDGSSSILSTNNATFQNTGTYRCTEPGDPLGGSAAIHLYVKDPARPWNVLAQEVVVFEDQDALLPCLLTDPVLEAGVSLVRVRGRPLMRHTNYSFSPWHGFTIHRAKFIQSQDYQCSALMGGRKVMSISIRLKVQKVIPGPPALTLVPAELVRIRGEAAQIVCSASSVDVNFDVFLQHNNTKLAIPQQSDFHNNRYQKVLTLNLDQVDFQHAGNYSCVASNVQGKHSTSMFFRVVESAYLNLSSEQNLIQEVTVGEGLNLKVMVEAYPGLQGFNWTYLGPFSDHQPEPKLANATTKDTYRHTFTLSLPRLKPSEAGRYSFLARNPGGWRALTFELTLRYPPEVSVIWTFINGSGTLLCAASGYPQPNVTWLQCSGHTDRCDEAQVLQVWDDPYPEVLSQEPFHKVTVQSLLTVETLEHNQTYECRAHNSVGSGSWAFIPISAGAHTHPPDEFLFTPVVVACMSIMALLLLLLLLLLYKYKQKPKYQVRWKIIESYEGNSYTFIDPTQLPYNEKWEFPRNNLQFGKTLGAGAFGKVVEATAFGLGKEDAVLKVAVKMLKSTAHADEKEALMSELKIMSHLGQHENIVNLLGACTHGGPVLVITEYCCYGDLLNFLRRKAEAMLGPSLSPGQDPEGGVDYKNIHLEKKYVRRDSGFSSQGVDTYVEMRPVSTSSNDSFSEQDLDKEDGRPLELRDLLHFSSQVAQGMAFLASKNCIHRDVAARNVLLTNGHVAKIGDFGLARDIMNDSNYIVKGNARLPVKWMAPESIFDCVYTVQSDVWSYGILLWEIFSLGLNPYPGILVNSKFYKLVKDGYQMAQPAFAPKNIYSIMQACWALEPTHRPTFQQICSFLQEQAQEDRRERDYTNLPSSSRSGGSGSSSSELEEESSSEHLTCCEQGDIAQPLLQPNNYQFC

Molecular target: CSF-1R (Homo sapiens, UniProt P07333)
Test: Z'-LYTE kinase assay
Assay type: biochemical
Conditions: mean ± SD

AZD4547 [reference compound]
IC50: 40.3 nM
